pIC50: −log10 of the molar value. “And” between values parts separate entries of the source, which are not always exact repeats. Equal entries are not always repeated. Where two headings read alike, the source gives them in different places.
What was measured:
NLuc-TTBK1 = NLuc-TTBK1 (Homo sapiens, UniProt Q5TCY1); assay: TTBK1 NanoBRET cellular target engagement assay in HEK293 cells; assay type: cell-based; conditions: 2 μM tracer 29
NLuc-TTBK2 = NLuc-TTBK2 (Homo sapiens, UniProt Q6IQ55); assay: TTBK2 NanoBRET cellular target engagement assay in HEK293 cells; assay type: cell-based; conditions: 2 μM tracer 29
MARK4 = MARK4 (Homo sapiens, UniProt Q96L34); assay: Eurofins enzymatic radiometric kinase assay; assay type: biochemical; conditions: ATP at Km, duplicate
PAK5 = PAK5 (Homo sapiens, UniProt Q9P286); assay: Eurofins enzymatic radiometric kinase assay; assay type: biochemical; conditions: ATP at Km, duplicate
TTBK1 = TTBK1 (Homo sapiens, UniProt Q5TCY1); assay: Eurofins enzymatic radiometric kinase assay; assay type: biochemical; conditions: 1 μM, ATP at Km, duplicate; lower = greater inhibition
TAOK1 = TAOK1 (Homo sapiens, UniProt Q7L7X3); assay: Eurofins enzymatic radiometric kinase assay; assay type: biochemical; conditions: 1 μM, ATP at Km, duplicate
TSSK1 = TSSK1 (Homo sapiens, UniProt Q9BXA7); assay: Eurofins enzymatic radiometric kinase assay; assay type: biochemical; conditions: ATP at Km, duplicate
TAOK3 = TAOK3 (Homo sapiens, UniProt Q9H2K8); assay: Eurofins enzymatic radiometric kinase assay; assay type: biochemical; conditions: ATP at Km, duplicate
PAK4 = PAK4 (Homo sapiens, UniProt O96013); assay: Eurofins enzymatic radiometric kinase assay; assay type: biochemical; conditions: ATP at Km, duplicate
HIPK1 = HIPK1 (Homo sapiens, UniProt Q86Z02); assay: Eurofins enzymatic radiometric kinase assay; assay type: biochemical; conditions: ATP at Km, duplicate
MARK3 = MARK3 (Homo sapiens, UniProt P27448); assay: Eurofins enzymatic radiometric kinase assay; assay type: biochemical; conditions: ATP at Km, duplicate
TTBK2 = TTBK2 (Homo sapiens, UniProt Q6IQ55); assay: Eurofins enzymatic radiometric kinase assay; assay type: biochemical; conditions: 1 μM, ATP at Km, duplicate; lower = greater inhibition
TAOK2 = TAOK2 (Homo sapiens, UniProt Q9UL54); assay: Eurofins enzymatic radiometric kinase assay; assay type: biochemical; conditions: 1 μM, ATP at Km, duplicate
TSSK2 = TSSK2 (Homo sapiens, UniProt Q96PF2); assay: Eurofins enzymatic radiometric kinase assay; assay type: biochemical; conditions: ATP at Km, duplicate
PAK6 = PAK6 (Homo sapiens, UniProt Q9NQU5); assay: Eurofins enzymatic radiometric kinase assay; assay type: biochemical; conditions: ATP at Km, duplicate
PAK3 = PAK3 (Homo sapiens, UniProt O75914); assay: Eurofins enzymatic radiometric kinase assay; assay type: biochemical; conditions: ATP at Km, duplicate
TSSK3 = TSSK3 (Homo sapiens, UniProt Q96PN8); assay: Eurofins enzymatic radiometric kinase assay; assay type: biochemical; conditions: 1 μM, ATP at Km, duplicate
MAP4K5 = MAP4K5 (Homo sapiens, UniProt Q9Y4K4); assay: Eurofins enzymatic radiometric kinase assay; assay type: biochemical; conditions: ATP at Km, duplicate
TSSK4 = TSSK4 (Homo sapiens, UniProt Q6SA08); assay: Eurofins enzymatic radiometric kinase assay; assay type: biochemical; conditions: ATP at Km, duplicate
[1] = read-out: TTBK1 intact cell NB IC50, intact HEK293 cells
[2] = read-out: TTBK1 permeabilized cell NB IC50, permeabilized HEK293 cells (digitonin)
[3] = read-out: TTBK2 intact cell NB IC50, intact HEK293 cells
[4] = read-out: TTBK2 permeabilized cell NB IC50, permeabilized HEK293 cells (digitonin)

By UniProt entry, the sequences of proteins in these tests, tags left out.
UniProt Q5TCY1, whole entry: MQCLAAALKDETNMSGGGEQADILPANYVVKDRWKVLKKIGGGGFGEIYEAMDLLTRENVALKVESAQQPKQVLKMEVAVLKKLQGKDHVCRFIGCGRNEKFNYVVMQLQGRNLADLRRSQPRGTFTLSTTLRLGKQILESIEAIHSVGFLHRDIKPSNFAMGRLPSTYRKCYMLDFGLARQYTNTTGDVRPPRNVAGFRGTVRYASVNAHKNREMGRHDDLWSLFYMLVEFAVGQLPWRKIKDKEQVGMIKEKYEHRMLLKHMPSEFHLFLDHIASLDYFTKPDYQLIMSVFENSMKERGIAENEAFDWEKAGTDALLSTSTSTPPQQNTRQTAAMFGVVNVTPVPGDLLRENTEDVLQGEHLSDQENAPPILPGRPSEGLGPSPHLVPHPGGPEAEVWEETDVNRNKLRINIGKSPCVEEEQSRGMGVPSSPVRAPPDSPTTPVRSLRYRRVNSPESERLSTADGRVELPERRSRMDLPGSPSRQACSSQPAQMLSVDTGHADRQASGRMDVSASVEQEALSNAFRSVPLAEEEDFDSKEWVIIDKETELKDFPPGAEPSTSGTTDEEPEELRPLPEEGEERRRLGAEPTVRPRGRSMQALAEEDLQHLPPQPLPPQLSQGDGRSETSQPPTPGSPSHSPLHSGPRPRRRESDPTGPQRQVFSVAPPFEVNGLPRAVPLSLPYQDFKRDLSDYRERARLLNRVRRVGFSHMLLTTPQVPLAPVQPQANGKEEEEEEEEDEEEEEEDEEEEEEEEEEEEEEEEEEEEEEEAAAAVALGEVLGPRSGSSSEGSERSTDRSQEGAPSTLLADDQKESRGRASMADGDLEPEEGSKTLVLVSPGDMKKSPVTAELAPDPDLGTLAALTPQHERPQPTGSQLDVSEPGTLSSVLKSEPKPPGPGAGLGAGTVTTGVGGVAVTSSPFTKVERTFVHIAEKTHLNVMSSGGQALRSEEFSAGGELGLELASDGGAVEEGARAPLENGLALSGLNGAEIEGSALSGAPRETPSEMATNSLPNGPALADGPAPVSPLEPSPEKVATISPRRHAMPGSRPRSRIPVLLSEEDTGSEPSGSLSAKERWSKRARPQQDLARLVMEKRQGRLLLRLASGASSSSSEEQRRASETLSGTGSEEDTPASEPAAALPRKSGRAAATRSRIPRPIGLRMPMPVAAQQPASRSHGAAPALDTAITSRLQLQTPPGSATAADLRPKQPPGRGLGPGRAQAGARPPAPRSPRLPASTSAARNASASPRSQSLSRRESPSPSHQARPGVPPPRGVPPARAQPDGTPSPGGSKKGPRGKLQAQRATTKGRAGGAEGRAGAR
UniProt Q9P286, whole entry: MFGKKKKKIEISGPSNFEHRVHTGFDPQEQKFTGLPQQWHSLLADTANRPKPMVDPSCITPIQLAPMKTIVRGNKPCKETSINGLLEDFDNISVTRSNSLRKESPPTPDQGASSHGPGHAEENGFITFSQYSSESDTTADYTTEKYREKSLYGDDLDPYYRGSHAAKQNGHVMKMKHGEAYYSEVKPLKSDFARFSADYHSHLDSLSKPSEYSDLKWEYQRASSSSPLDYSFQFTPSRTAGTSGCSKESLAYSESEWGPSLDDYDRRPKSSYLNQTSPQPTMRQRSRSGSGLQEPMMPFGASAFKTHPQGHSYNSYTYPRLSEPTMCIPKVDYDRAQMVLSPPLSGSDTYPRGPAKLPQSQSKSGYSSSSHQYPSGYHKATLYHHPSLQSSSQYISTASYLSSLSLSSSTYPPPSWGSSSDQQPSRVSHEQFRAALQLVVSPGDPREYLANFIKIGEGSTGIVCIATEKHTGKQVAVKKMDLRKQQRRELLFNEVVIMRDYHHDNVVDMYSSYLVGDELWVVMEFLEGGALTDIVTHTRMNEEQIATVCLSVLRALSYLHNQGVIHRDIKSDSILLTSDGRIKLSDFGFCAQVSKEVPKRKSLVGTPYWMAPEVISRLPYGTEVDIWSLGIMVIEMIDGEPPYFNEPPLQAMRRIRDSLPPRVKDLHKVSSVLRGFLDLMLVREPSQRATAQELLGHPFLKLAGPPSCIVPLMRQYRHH
UniProt Q9BXA7, whole entry: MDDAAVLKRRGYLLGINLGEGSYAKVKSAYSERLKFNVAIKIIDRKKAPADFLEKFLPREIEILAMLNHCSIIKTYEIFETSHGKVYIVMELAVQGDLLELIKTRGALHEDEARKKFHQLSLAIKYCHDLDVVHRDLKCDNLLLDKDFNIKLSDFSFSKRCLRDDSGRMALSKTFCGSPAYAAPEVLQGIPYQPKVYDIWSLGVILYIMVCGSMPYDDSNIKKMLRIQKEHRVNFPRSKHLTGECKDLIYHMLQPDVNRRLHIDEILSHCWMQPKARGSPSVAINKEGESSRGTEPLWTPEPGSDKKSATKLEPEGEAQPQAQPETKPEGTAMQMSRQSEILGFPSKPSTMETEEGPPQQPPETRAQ
UniProt Q9H2K8, whole entry: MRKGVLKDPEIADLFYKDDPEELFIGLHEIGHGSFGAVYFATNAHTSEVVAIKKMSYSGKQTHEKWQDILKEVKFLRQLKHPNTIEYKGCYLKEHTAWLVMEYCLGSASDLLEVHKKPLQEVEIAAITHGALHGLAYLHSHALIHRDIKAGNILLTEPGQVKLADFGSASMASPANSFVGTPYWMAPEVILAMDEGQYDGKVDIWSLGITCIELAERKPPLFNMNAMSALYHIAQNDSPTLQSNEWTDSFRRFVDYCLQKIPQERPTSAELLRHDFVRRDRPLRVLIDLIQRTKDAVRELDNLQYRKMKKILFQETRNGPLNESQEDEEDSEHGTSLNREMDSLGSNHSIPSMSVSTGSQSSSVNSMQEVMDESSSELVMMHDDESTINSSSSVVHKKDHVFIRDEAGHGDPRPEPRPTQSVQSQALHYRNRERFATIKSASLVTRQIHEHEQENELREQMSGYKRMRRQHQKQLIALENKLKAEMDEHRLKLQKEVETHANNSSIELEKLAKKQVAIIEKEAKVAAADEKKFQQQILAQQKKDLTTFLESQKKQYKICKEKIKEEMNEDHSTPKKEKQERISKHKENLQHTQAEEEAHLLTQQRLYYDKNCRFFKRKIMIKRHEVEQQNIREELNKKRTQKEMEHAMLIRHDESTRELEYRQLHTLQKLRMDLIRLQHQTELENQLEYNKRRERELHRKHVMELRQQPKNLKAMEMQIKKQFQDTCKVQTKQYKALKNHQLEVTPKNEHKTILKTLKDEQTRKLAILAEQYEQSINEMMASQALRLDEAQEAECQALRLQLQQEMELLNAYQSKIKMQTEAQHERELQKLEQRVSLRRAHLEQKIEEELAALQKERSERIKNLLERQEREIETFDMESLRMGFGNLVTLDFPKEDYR
UniProt O96013, whole entry: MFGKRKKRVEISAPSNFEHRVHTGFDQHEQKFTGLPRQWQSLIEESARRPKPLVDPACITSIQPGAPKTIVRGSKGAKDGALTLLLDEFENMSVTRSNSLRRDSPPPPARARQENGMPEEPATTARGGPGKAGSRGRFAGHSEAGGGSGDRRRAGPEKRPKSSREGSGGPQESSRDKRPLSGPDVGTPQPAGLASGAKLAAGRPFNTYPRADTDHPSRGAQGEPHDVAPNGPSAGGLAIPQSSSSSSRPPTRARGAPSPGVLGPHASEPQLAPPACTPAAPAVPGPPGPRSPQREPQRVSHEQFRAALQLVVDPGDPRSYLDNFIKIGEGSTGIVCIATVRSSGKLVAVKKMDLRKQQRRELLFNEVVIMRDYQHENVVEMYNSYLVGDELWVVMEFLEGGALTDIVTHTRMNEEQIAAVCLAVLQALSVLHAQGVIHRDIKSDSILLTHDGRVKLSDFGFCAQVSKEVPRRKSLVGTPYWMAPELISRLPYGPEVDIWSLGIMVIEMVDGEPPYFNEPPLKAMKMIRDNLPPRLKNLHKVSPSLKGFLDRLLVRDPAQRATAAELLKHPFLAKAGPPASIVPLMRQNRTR
UniProt Q9NQU5, whole entry: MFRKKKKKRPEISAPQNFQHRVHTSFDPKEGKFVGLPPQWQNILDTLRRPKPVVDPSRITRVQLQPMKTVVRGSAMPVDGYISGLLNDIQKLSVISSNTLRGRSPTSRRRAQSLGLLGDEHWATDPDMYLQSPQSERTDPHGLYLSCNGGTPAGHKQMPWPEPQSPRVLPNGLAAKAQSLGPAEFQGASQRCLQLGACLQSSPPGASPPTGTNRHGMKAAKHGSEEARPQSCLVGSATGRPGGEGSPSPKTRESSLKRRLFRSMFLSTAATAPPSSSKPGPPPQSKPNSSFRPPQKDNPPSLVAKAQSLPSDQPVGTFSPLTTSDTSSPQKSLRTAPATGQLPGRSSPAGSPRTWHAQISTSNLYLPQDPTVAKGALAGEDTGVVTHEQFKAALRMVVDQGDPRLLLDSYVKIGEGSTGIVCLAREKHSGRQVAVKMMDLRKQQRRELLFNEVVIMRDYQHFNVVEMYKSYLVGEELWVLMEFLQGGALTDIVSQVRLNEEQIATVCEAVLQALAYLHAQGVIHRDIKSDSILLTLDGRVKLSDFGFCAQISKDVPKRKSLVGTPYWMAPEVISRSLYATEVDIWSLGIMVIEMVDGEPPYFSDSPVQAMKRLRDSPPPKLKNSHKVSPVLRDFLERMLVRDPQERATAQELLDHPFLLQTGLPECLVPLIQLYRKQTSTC
UniProt O75914, whole entry: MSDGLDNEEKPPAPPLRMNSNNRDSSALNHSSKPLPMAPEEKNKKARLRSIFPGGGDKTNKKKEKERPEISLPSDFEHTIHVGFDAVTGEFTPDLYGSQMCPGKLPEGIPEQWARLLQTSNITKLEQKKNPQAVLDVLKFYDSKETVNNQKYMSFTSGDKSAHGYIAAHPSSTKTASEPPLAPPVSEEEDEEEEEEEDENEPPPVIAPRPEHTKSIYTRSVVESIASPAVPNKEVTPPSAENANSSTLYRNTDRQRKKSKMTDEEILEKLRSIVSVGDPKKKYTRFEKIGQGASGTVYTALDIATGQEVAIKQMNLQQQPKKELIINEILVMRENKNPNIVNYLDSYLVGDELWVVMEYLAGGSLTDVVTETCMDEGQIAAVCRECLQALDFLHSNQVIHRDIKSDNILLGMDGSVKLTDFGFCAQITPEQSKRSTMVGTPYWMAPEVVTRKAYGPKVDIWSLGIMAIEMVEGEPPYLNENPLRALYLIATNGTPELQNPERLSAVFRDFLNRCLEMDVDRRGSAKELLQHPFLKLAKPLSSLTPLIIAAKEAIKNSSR
UniProt Q96PN8, whole entry: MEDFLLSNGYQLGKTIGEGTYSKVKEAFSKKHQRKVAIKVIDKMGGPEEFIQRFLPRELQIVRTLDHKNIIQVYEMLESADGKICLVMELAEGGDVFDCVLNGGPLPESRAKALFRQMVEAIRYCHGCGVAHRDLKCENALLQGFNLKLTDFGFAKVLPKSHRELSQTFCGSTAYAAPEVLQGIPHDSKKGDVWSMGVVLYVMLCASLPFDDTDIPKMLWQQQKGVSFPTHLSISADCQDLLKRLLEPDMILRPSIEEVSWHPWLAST
UniProt Q9Y4K4, whole entry: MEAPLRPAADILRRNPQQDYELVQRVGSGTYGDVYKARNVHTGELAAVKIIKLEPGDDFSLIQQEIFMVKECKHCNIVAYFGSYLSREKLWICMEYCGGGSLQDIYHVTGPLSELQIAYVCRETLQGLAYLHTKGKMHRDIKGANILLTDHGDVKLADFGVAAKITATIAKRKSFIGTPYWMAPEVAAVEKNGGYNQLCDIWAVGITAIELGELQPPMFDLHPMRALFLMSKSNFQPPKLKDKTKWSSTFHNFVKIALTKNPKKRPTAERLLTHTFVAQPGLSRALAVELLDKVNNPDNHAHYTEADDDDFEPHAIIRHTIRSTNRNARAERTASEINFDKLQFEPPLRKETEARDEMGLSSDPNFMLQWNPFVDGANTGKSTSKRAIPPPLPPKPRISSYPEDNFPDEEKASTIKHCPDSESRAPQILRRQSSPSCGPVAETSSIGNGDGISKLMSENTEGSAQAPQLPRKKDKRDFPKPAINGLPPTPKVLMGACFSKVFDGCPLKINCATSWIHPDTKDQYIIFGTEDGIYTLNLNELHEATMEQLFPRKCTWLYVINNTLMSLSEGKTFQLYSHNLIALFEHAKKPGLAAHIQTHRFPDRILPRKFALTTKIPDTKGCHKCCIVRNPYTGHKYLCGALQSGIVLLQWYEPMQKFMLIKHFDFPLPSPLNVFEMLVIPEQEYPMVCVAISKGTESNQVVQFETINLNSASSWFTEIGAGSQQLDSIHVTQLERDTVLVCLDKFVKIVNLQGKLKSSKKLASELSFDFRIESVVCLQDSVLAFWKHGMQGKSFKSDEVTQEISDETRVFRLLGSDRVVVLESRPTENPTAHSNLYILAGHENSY
UniProt Q6SA08, whole entry: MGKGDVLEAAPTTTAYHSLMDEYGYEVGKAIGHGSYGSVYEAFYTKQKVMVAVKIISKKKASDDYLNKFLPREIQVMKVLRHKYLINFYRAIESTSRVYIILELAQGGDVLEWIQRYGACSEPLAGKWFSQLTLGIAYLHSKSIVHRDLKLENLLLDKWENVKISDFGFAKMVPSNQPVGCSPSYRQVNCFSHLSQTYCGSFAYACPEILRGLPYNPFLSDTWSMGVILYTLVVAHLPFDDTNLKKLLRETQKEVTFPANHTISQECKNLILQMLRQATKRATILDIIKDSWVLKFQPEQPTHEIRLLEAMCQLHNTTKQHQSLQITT

pIC50 (NLuc-TTBK1; [1]) | pIC50 (NLuc-TTBK1; [2]) | pIC50 (NLuc-TTBK2; [3]) | pIC50 (NLuc-TTBK2; [4]) | MARK4 PoC at 1 μM (MARK4) | PAK5 PoC at 1 μM (PAK5) | TTBK1 PoC (TTBK1) | TAOK1 PoC at 1 μM (TAOK1) | TSSK1 PoC at 1 μM (TSSK1) | TAOK3 PoC at 1 μM (TAOK3) | PAK4 PoC at 1 μM (PAK4) | HIPK1 PoC at 1 μM (HIPK1) | MARK3 PoC at 1 μM (MARK3) | TTBK2 PoC (TTBK2) | TAOK2 PoC at 1 μM (TAOK2) | TSSK2 PoC at 1 μM (TSSK2) | PAK6 PoC at 1 μM (PAK6) | PAK3 PoC at 1 μM (PAK3) | TSSK3 PoC at 1 μM (TSSK3) | MAP4K5 PoC at 1 μM (MAP4K5) | SMILES | other results
< 4.52 | 4.60 | < 4.52 | 4.72 | 37 PoC | 26 PoC | 91 PoC and 91/NT PoC | 1 PoC | 57 PoC | 11 PoC | 22 PoC | 30 PoC | 31 PoC | 76 PoC and 76/NT PoC | 9 PoC | 91 PoC | 36 PoC | 89 PoC | 36 PoC | 1 PoC | Nc1ncc2c(n1)-c1c([nH]c3ccc(C#CCCO)cc13)CCC2 | TSSK4 PoC at 1 μM (TSSK4): 103 PoC
< 4.52 | < 4.52 | < 4.52 | < 4.52 | 73 PoC | 77 PoC | 85 PoC and 85/NT PoC | 22 PoC | 73 PoC | 44 PoC | 66 PoC | 84 PoC | 83 PoC | 103 PoC and 103/NT PoC | 55 PoC | 77 PoC | 82 PoC | 117 PoC | 59 PoC | 6 PoC | CC(C)(C#Cc1ccc2[nH]c3c(c2c1)-c1nc(N)ncc1CCC3)CO | TSSK4 PoC at 1 μM (TSSK4): 94 PoC
< 4.52 | < 4.52 | < 4.52 | < 4.52 | 84 PoC | 39 PoC | 86 PoC and 86/NT PoC | 24 PoC | 98 PoC | 28 PoC | 31 PoC | 56 PoC | 84 PoC | 104 PoC and 104/NT PoC | 21 PoC | 93 PoC | 40 PoC | 110 PoC | 34 PoC | 3 PoC | CC(C)(O)CC#Cc1ccc2[nH]c3c(c2c1)-c1nc(N)ncc1CCC3 | TSSK4 PoC at 1 μM (TSSK4): 103 PoC
< 4.52 | 5.14 | > 4.52 and 4.59 | 5.03 | 37 PoC | 8 PoC | 68 PoC and 68/NT PoC | 2 PoC | 8 PoC | 9 PoC | 10 PoC | 69 PoC | 27 PoC | 72 PoC and 72/NT PoC | 8 PoC | 55 PoC | 13 PoC | 89 PoC | 13 PoC | -1 PoC | CC(O)C#Cc1ccc2[nH]c3c(c2c1)-c1nc(N)ncc1CCC3 (stereo not drawn) | TSSK4 PoC at 1 μM (TSSK4): 86 PoC

— publication PMC10104807, “Modulation of tau tubulin kinases (TTBK1 and TTBK2) impacts ciliogenesis” (Scientific Reports, 2023)
